How the values were obtained:
Adenosine receptor A3 [1] = molecular target: T1, Adenosine receptor A3 (Homo sapiens, UniProt P0DMS8); assay: Displacement of [125I]AB-MECA binding to Adenosine A3 receptor expressed in CHO cells; type: cell-based
Adenosine receptor A1 = Adenosine receptor A1 (Homo sapiens, UniProt P30542); assay: Displacement of [3H]CHA binding to Adenosine A1 receptor expressed in CHO cells; type: cell-based
Adenosine receptor A3 [2] = molecular target: T1, Adenosine receptor A3; assay: Inhibition of (10 uM) forskolin-mediated cAMP production in CHO cells expressing human Adenosine A3 receptor; type: functional, cell-based

By UniProt entry, the sequences of proteins in these tests, tags left out.
UniProt P0DMS8, whole entry: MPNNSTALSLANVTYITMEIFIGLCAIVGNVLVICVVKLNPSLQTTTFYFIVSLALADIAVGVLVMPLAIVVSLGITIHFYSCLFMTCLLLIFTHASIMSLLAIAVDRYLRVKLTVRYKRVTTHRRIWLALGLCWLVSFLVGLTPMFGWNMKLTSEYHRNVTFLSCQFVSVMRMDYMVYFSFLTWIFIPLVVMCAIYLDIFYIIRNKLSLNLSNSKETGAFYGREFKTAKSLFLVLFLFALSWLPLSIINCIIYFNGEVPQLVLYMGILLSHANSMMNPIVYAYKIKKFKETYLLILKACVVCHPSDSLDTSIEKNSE
UniProt P30542, whole entry: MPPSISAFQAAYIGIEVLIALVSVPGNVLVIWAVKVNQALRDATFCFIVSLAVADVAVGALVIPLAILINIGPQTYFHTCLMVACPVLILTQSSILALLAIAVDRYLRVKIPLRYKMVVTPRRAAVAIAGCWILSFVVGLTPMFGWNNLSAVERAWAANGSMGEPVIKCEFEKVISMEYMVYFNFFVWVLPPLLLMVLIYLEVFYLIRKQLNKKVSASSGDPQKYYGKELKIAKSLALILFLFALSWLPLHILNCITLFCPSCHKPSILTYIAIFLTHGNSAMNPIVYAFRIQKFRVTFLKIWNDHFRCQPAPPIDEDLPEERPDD

Ki (Adenosine receptor A3 [1]) [nM] | Ki (Adenosine receptor A1) [nM] | IC50 (Adenosine receptor A3 [2]) [nM] | SMILES
23 | – | – | CCNC(=O)[C@H]1OC(n2cnc3c(NC(=O)Nc4ccc(S(=O)(=O)NC5CCCCC5)cc4)ncnc32)C(O)C1O (single isomer, unassigned)
17 | 750 | – | CCNC(=O)[C@H]1OC(n2cnc3c(NC(=O)Nc4ccc(S(=O)(=O)N5CCCCC5)cc4)ncnc32)C(O)C1O (single isomer, unassigned)
12 | – | – | CCNC(=O)[C@H]1OC(n2cnc3c(NC(=O)Nc4ccc(S(=O)(=O)N(C)C)cc4)ncnc32)C(O)C1O (single isomer, unassigned)
– | 700 | – | CCNC(=O)[C@H]1OC(n2cnc3c(NC(=O)Nc4ccc(S(=O)(=O)N5CCCC5)cc4)ncnc32)C(O)C1O (single isomer, unassigned)
23 | – | – | CCNC(=O)[C@H]1OC(n2cnc3c(NC(=O)Nc4ccc(S(=O)(=O)Nc5ccc(OC)cc5)cc4)ncnc32)C(O)C1O (single isomer, unassigned)
9 | 350 | 50 | CCNC(=O)[C@H]1OC(n2cnc3c(NC(=O)Nc4ccc(S(=O)(=O)N(CC)CC)cc4)ncnc32)C(O)C1O (single isomer, unassigned)
24 | – | – | CCNC(=O)[C@H]1OC(n2cnc3c(NC(=O)Nc4ccc(S(=O)(=O)NCc5ccccc5)cc4)ncnc32)C(O)C1O (single isomer, unassigned)
– | 206 | – | C=CCN(C)S(=O)(=O)c1ccc(NC(=O)Nc2ncnc3c2ncn3C2O[C@H](C(=O)NCC)C(O)C2O)cc1 (single isomer, unassigned)

Reference: ChEMBL document CHEMBL1138800, “Synthesis and biological evaluation of novel N6-[4-(substituted)sulfonamidophenylcarbamoyl]adenosine-5'-uronamides as A3 adenosine receptor agonists” (J Med Chem, 2004)
